Target: T1, Recombinant human sTNF (soluble form of tumor necrosis factor) (human, UniProt P01375 77-233)
T1 construct: additional N-terminal methionine, stated in words; tumor necrosis factor, human, soluble form (157 residues), residues 77-233 of UniProt entry P01375; Monomeric on the SPR chip after long flushing and glycine pH 3.3 washes; multimeric in solution in the fluorimetric titrations and cross-linking; also called TNF-α; TNF ligand superfamily member 2; source: bought: Prospec-Tany Technogene (catalog # …)
Assay: SPR; ligand (50 μg/mL sTNF or TNF-β) immobilised on a ProteOn GLH chip by amine coupling; chip flushed with running buffer for two days and several times with 10 mM glycine pH 3.3 to dissociate sTNF multimers (monomeric sTNF); Ca2+-loaded S100 protein as analyte, 10 nM–2 µM; 25 °C; 10 mM HEPES, 150 mM NaCl, 1 mM CaCl2, 0.05% TWEEN 20, pH 7.4; heterogeneous ligand model
Settings: both partners purified

Amino acid sequences for entries named in this document (tags omitted). Chains listed by the source or under a name are the forms on record and can include a tag or linker.
UniProt P01375, other isoform, or with tags, fused parts or gaps: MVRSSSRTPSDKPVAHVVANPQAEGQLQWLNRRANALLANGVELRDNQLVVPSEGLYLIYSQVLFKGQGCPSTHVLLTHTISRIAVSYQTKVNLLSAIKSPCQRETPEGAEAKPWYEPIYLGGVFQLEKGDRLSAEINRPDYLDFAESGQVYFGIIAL

B1: Recombinant human S100A1 (natural protein, UniProt P23297 1-94, looked up)
chain: MGSELETAMETLINVFHAHSGKEGDKYKLSKKELKELLQTELSGFLDAQKDVDAVDKVMKELDENGDGEVDFQEYVVLVAALTVACNNFFWENS
notes: S100A1, human; Ca2+-loaded in the assay; source: E. coli, purified as previously described
With B1 the Kd was over 100 µM.
